US10494332B2, “Protein tyrosine phosphatases or SHP2 inhibitors and uses thereof” (Indiana University Research and Technology Corporation, priority 2015, dated 2019)

Sequences of proteins named here, by UniProt entry; tags and fusion partners are left off. A change or cut given only in a name is not applied to a line headed by its entry. Residues count along the entry.
UniProt P28827, 21-1452: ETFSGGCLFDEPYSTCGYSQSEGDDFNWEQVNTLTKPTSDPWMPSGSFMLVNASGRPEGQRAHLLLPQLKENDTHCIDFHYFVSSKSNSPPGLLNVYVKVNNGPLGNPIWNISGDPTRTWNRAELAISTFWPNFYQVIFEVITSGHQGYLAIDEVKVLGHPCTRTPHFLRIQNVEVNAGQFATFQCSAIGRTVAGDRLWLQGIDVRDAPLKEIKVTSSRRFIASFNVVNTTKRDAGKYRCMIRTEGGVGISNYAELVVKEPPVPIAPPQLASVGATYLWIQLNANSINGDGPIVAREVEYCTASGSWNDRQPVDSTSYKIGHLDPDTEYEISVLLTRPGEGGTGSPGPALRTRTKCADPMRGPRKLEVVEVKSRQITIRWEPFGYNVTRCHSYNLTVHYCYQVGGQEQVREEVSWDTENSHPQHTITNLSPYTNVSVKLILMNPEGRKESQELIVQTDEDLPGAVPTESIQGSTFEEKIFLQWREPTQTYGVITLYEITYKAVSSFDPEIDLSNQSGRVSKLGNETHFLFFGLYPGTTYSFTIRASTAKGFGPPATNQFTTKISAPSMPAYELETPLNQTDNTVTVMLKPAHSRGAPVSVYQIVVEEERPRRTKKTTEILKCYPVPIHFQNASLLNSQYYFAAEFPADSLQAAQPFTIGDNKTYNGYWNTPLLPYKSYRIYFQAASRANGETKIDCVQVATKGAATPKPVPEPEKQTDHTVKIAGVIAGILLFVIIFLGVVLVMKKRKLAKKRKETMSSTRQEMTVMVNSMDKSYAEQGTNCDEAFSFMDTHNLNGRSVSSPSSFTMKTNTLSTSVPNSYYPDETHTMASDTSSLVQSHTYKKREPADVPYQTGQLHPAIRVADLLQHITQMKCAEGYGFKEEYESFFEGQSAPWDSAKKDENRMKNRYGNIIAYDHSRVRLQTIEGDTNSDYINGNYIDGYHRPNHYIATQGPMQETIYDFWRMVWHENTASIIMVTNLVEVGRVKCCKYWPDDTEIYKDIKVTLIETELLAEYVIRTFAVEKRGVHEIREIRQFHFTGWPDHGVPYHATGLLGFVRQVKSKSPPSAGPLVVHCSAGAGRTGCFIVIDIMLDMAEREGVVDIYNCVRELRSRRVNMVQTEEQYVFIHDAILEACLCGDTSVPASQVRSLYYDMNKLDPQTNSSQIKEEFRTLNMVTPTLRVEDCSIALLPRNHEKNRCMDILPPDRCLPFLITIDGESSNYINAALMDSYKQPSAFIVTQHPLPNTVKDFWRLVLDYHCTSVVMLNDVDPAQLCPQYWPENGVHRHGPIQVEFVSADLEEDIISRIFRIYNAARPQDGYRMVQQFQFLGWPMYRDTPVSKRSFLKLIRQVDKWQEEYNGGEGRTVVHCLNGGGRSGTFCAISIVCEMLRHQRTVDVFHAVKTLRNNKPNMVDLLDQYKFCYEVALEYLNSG
UniProt P9WIA1: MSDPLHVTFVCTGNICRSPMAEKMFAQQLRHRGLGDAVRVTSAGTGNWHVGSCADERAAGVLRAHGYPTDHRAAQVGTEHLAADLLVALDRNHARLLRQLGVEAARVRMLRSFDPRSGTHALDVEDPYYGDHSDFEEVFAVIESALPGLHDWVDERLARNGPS

What was measured:
[1] = target: T1, PP5 (Homo sapiens, UniProt P53041); experiment: biochemical
T1 sequence (P53041 1-499): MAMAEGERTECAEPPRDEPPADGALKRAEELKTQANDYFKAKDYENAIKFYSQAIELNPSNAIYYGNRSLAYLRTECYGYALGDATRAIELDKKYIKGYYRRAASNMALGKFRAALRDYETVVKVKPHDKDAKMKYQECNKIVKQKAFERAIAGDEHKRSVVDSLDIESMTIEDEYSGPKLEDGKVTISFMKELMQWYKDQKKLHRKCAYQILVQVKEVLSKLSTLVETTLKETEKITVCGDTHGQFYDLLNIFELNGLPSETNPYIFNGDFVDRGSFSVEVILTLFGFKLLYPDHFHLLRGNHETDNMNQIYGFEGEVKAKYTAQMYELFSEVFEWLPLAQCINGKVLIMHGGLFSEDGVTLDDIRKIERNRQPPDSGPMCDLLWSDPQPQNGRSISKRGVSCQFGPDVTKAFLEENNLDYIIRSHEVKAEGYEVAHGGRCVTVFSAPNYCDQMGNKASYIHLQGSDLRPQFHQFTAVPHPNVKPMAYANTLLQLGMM

[2] = target: PTPμ (Homo sapiens, UniProt P28827); experiment: biochemical
[3] = target: T2, Laforin (Homo sapiens, UniProt O95278); experiment: PTP inhibition assay (pNPP); format: biochemical
T2 sequence (O95278 1-331): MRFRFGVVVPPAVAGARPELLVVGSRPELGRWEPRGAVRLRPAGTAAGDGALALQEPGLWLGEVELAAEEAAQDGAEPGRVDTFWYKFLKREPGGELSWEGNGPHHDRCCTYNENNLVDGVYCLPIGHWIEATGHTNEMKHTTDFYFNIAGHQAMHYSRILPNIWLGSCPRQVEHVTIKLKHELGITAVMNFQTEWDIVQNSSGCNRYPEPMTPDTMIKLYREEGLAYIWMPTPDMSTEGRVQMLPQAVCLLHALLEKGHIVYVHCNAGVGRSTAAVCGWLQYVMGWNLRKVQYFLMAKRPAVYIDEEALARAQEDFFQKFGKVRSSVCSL

[4] = target: mPTPA (Mycobacterium tuberculosis, UniProt P9WIA1); format: biochemical
[5] = target: T3, mPTPB (Mycobacterium tuberculosis, UniProt I6WXK4); format: biochemical
T3 sequence (I6WXK4 1-276): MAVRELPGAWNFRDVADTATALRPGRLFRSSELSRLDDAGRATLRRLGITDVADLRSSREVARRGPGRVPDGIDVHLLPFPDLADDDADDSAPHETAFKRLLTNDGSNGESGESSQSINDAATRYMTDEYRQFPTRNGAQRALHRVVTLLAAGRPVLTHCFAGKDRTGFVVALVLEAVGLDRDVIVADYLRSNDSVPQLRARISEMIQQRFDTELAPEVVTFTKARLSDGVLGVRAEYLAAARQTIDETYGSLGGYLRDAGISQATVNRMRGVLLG

SMILES: CC(C)c1ccc(NC(=O)C(=O)Nc2ccc(NC(=O)C(c3ccccc3)S(=O)(=O)O)cc2)cc1 (centres unmarked) [Compound 6, 2-((4-(2-((4-isopropylphenyl)amino)-2-oxoacetamido)phenyl)amino)-2-oxo-1-phenylethanesulfonic acid]
- IC50 [1]: > 10 µM
- IC50 [2]: > 10 µM

SMILES: Cc1c(Br)cc(NC(=O)C(c2ccccc2)S(=O)(=O)O)cc1Br (centres unmarked) [Compound L319M34]
- IC50 [3]: 1.05 µM

SMILES: O=C(Nc1ccc(N2CCOCC2)cc1)C(c1ccccc1)S(=O)(=O)O (centres unmarked) [Compound L319M68]
- Fold selectivity for mPTPA over Laforin [4]: 30 fold
- Fold selectivity for mPTPA over human LMWPTP [4]: 80 fold
- Fold selectivity for mPTPA over mPTPB [4]: 20 fold
- Fold selectivity for mPTPA over other PTPs (human PTP panel) [4]: > 800 fold

SMILES: O=C(C(c1ccccc1)S(=O)(=O)O)N1CCC(c2ccc(Cl)c(Cl)c2)CC1 (centres unmarked) [Compound L319N47]
- Fold increase in potency against mPTPB compared to SPAA [5]: 2000 fold
- Fold selectivity for mPTPB over mPTPA [5]: 1000 fold
- Fold selectivity for mPTPB over other PTPs (PTP panel) [5]: greater than 2000 fold

SMILES: O=C(C(c1ccccc1)S(=O)(=O)O)N1CCCC2CCCCC21 (centres unmarked) [Compound L319N53]
- Fold selectivity for mPTPB over other PTPs (PTP panel) [5]: greater than 10000 fold
